Experimental data as given in BindingDB's records for aid1799748 (Csar, 2012).

Target: Urokinase-type plasminogen activator (Homo sapiens, UniProt P00749)
Assay: Abbott uPA__Urokinase Human - Ki(uM)
Details: pH 7.4; 25 °C

- Ki: 6.39 µM
SMILES: [H]/N=C(\N)c1ccc2ccc(OC)c(OCCCBr)c2c1 [uPa_3]
